For the experiment, the target named is T1, Interstitial collagenase (Homo sapiens, UniProt P03956).
T1 sequence (P03956 whole entry): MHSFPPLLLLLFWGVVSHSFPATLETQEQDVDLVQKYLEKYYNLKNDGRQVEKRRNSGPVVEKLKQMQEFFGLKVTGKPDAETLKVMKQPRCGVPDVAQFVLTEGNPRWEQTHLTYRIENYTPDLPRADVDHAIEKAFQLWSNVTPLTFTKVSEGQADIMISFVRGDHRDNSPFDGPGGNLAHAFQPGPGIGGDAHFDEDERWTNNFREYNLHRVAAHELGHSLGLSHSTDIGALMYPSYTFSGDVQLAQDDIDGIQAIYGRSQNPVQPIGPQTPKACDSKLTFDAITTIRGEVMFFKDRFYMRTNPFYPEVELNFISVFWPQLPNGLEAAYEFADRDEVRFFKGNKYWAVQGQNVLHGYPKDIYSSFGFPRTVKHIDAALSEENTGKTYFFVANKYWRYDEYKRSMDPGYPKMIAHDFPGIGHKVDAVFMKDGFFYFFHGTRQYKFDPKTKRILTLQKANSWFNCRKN
Kind of experiment: Inhibition of matrix metalloprotease-1 (MMP-1).

In general, IC50 refers to the concentration that gives 50% inhibition. Low readings indicate greater potency, high ones weaker potency.

Structures are written as SMILES.

For the compound `COc1ccc(S(=O)(=O)N(Cc2cccnc2)[C@@H](C(=O)NO)C(C)C)cc1` [CGS-27023A], the IC50 was 15 nM.

These data come from ChEMBL document CHEMBL1130592, “The synthesis and biological activity of a novel series of diazepine MMP inhibitors” (Bioorg Med Chem Lett, 1998).
